Earlier results on one compound are cited in patent publication US11191803B2, “Laminin receptor peptides for therapy” (priority 2017, dated 2021).

This data set concerns ALS/MND patients. The following applies: cited from earlier work.

`Nc1nc2ccc(OC(F)(F)F)cc2s1` [Riluzole]: the Survival advantage is recorded as 2-3 months.
